Biological target: Aldo-keto reductase family 1 member B1 (Rattus norvegicus, UniProt P07943)
Experiment: Inhibitory concentration against aldose reductase obtained from rat lens
Outline: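 Enzyme from frozen rat eye lenses, homogenized in distilled water, centrifuged, taken as the 40% ammonium sulfate supernatant. Assay in 0.1 M phosphate pH 6.2 with 0.104 mM NADPH and 10 mM DL-glyceraldehyde, started by substrate and read as NADPH loss at 340 nm for 3.0 min. Screened at 100 μM; ≥3 concentrations in duplicate; IC50 by least-squares fit of the linear log dose–response segment.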

IC50: 180 nM
SMILES: O=C1NC(=O)[C@@]2(CCOc3ccc(F)cc32)N1 [SORBINIL]

Reference: ChEMBL document CHEMBL1124315, “N- and 2-substituted N-(phenylsulfonyl)glycines as inhibitors of rat lens aldose reductase” (J Med Chem, 1989)
